Data: patent US5688799A, “9-Hydroxy-pyrido[1,2-a]pyrimidin-4-one ether derivatives” (Janssen Pharmaceutica N.V., priority 1993, dated 1997)

Test system: norepinephrine (death upon administration of the α2 -agonist norepinephrine)
Test: combined APO, TRY, NOR test in rats: norepinephrine (NOR)
Assay type: in vivo

Compound: CCCCCCCCCCCCOc1cccn2c(=O)c(CCN3CCC(c4noc5cc(F)ccc45)CC3)c(C)nc12 [Compound 3]
- NOR ED50: 10 mg/kg
